Results: ChEMBL document CHEMBL1130191 (J Med Chem, 1997)

System: DNA topoisomerase I (Bos taurus)
Assay: Inhibition of calf thymus Topoisomerase-I

## CO[C@H]1[C@H](O)[C@@H](O)[C@H](n2c3c(Cl)cccc3c3c4c(c5c6cccc(Cl)c6[nH]c5c32)C(=O)N(C)C4=O)O[C@@H]1CO
  MIC: > 17 µM
